# In patent publication US20150148256A1, “BIOLUMINESCENCE IMAGING-BASED SCREENING ASSAY AND INHIBITORS OF ABCG2” (THE JOHNS HOPKINS UNIVERSITY, priority 2008, published 2015):
# The chains behind the UniProt entries cited, without tags or fusion partners. Where a name states a change or a piece, a line headed by the entry shows the natural chain unless it says otherwise.
# UniProt Q9UNQ0: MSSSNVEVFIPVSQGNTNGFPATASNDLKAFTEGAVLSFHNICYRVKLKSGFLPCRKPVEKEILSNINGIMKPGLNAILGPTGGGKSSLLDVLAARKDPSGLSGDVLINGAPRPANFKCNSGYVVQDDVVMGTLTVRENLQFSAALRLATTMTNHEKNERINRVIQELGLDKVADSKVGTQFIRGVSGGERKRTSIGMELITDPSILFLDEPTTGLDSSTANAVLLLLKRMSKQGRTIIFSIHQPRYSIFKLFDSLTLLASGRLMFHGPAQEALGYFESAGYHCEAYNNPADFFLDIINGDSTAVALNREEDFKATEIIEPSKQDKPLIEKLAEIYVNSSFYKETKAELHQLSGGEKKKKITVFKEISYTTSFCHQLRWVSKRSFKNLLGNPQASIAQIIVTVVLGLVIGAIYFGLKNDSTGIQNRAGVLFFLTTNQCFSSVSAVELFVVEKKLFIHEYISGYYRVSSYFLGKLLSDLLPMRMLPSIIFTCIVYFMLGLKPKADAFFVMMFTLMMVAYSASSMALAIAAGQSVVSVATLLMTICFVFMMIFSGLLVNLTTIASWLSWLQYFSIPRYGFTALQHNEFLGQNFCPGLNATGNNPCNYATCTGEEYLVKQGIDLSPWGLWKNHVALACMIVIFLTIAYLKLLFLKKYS
# Biological target: ABCG2 (Homo sapiens, UniProt Q9UNQ0)
substance,measurement,value
thiethylperazine malate,"Fold (BLI enhancement, S/B ratio over control)",2.6 fold
